Results from US9868730B2, “Kappa opioid receptor selective compounds, compositions, and uses thereof” (The Trustees of Columbia University in the City of New York, priority 2013, dated 2018).

The chains behind the UniProt entries cited, without tags or fusion partners. Where a name states a change or a piece, a line headed by the entry shows the natural chain unless it says otherwise.
UniProt P41145: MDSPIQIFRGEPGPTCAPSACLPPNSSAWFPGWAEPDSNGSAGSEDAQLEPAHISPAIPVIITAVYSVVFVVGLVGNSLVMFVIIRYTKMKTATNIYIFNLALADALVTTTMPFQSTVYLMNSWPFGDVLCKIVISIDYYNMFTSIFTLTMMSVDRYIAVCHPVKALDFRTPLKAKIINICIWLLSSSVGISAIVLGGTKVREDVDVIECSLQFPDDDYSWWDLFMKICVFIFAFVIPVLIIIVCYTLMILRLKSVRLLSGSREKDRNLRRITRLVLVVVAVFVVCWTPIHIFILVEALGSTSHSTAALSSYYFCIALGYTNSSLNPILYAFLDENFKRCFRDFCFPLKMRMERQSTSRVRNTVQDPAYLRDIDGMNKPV

Molecular target: KOP receptor (Homo sapiens, UniProt P41145)
Assay: G protein bias from BRET-based G protein activation and arrestin recruitment assays
Type: cell-based

NC(N)=Nc1ccc2c3c([nH]c2c1)[C@@H]1Oc2c(O)ccc4c2[C@@]12CCN(CC1CC1)[C@H](C4)[C@]2(O)C3 [6′-GNTI, 6′-guanidinonaltrindole]
bias toward G protein activation over arrestin: showed bias toward G protein activation over arrestin; also recorded: biased toward G protein activation

“Also recorded” adds a separate entry of the source.
